Experimental data reported in publication PMC3597730, “Novel Phenolic Inhibitors of Small/Intermediate-Conductance Ca^2+-Activated K^+ Channels, KCa3.1 and KCa2.3” (PLoS ONE, 2013).

Molecular target: T1, cloned human KCa3.1 channel (Homo sapiens, UniProt O15554)
T1 construct: expressed in transfected cells; gift of Khaled Houamed, University of Chicago
Assay: Inside-out patch recordings from hKCa3.1-overexpressing HEK293 cells
Type: biochemical
Conditions: inside-out patches; compound 1 µM

Clc1ccccc1C(c1ccccc1)(c1ccccc1)n1cccn1 [TRAM-34, 1-[(2-chlorophenyl) (diphenyl)methyl]-1H-pyrazole, reference compound]
hKCa3.1 blocking effect (in words): complete channel blockade; also recorded: complete block

“Also recorded” adds a separate entry of the source.
